Measured affinities in a library of Ab-14 heavy chain variants

Values reported by Li et al. 2023, doi:10.1038/s41467-023-39022-2 (FLAb copy).

Target: peptide PDVDLGDISGINAS, taken from heptad repeat 2 (HR2) of SARS-CoV-2 spike.

Parent: Ab-14, a human scFv built as VH, a (GGGGS)3 linker, VL. Only the CDRs of the heavy chain vary.
VH: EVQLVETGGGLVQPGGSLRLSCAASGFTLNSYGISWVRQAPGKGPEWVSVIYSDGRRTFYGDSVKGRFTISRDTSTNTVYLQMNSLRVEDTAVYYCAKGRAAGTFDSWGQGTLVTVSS
VL: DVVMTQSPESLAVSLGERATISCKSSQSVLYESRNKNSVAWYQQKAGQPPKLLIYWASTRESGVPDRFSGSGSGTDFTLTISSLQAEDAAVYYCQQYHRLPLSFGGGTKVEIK

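The starting antibody came from a phage panning campaign against this peptide. The variants were designed computationally from a first round of random CDR variants and then made and measured. Group labels follow the data file (Ctrl: baseline library sampled from a position-specific scoring matrix, with some repeated check sequences; En: ensemble of fine-tuned language models; HC: hill climbing; Gen: genetic algorithm; Gibbs: Gibbs sampling; a sequence that several methods proposed may carry one label only). AlphaSeq pools MATa yeast showing the antibodies with MATalpha yeast showing the peptide. Binding brings cells together so that they mate, and sequencing counts the barcode pairs among the diploids. Each replicate has its own calibration line, from reference interactions of the BCL2 family. Mating was done six times.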

The parent's heavy chain CDRs are GFTLNSYGIS, VIYSDGRRTFYGDSVK, GRAAGTFDS; each variant's own CDRs replace them letter for letter. This list holds designs with more than six substitutions. The read-out is the apparent dissociation constant on a log10 scale (nM): the lower, the stronger. Averages over replicates are reported, and they cover detected replicates only. "ND" marks a missing value. The strain was present, yet no cells mated with the target were sequenced in that replicate, which points to weak or no binding. In the paper, a design with two or fewer of six values counts as a poor binder. The parent sequence was in this pool as ten entries: three were never detected, three once, and four in most replicates, with averages from 0.34 to 2.37. Background: pairings of all heavy chain designs with three empty control strains gave a value in 1% of cases (median 2.08, 5th percentile 0.84). Values in that range, when seen in few replicates, are hard to tell from nonspecific mating. A sequence measured in both rounds can read differently, since the two assays cover different ranges.

* GFDLNEYGIS / VIYADGKRTAYANSVK / GNVAGTFDV [En_Gen]: 0.33, -0.78, -1.60, -0.45, -0.14, -0.70 (mean -0.56)
* GYDLVEYGIS / VIYADGQRTVYSDDVK / GNHGGTIFT [En_Gibbs]: ND, ND, ND, ND, ND, ND
* GFDLNEYGIS / VIYADGMRTFYTDSVK / GEVAGTFDS [En_HC]: 0.00, -0.44, -0.39, -0.63, -0.63, -0.39 (mean -0.41)
* GFDINEYGVS / VIYADGMRSYYADKVK / GSEGALFDV [En_Gibbs]: ND, ND, ND, ND, ND, ND
* GVEIDEYGIS / VIYADGRRRAYADDVK / GNDIGGFDL [En_Gibbs]: ND, ND, ND, ND, ND, ND
* GFDLNEYGIS / VIYADGQRTFYADSVK / GSEAGTFNM [En_HC]: -0.45, -0.20, -0.51, -0.36, -0.40, -0.67 (mean -0.43)
* GQDLMEYGIS / VIYADGTRTMYTNDVK / GHNGGQGKT [En_Gibbs]: ND, ND, ND, ND, ND, ND
* GFDLNEYGIS / VIYADGRRTFYADSVK / GTVAGTFVS [En_HC]: -0.23, -0.69, -0.41, -0.58, -0.72, -0.38 (mean -0.50)
* GFDLNEYGIS / VIYADGMRTAYSDSVK / GETAGTFDI [En_Gen]: -0.20, -0.33, -0.43, -0.35, -0.15, -0.26 (mean -0.29)
* GFDLNEYGIS / VIYADGMRKAYADSVK / GNVAGTFDQ [En_Gen]: -0.58, -0.67, -0.74, -1.00, -0.79, -0.88 (mean -0.78)
* GFALDEYGIS / VIYADGSRTVYAGDVK / GMLGVNFDM [En_Gibbs]: ND, ND, ND, ND, ND, ND
* GMKLQDYGIS / VIYADGVRTAFKESVK / GQIAGTFNS [En_Gibbs]: 0.50, 0.96, 1.02, 0.67, 1.07, 0.57 (mean 0.80)
* GFDLNEYGIS / VIYADGSRTFYADSVK / GEAAGSFDM [En_HC]: ND, ND, ND, 0.54, ND, ND
* GFDLNEYGIS / VIYADGQRTFYSDSVK / GEIAGTFDQ [En_HC]: 0.14, -0.35, -0.42, -0.39, -0.52, 0.15 (mean -0.23)
* GFDLDEYGIS / VIYADGSRTAYSDSVK / GNVAGTFDQ [En_Gen]: -0.03, 0.00, 0.11, -0.47, -0.05, 0.02 (mean -0.07)
* GFDLNEYGIS / VIYADGRRTAYSDSVK / GGNAGTFDQ [En_HC]: -0.50, -0.53, -0.80, -0.68, -0.69, -0.69 (mean -0.65)
* GFDLNEYGIS / VIYADGRRTFYVDSVK / GTNAGTFDV [En_HC]: -0.28, -0.61, -0.78, -0.73, -0.21, -0.43 (mean -0.51)
* GFDLNEYGIS / VIYADGMRTAYADTVK / GNVAGTFDI [En_Gen]: 0.37, 0.73, -0.69, -0.35, -0.44, 0.43 (mean 0.01)
* GFDLNEYGIS / VIYADGMRTAYADKVK / GNVAGTFDQ [En_Gen]: -0.14, -0.34, -0.44, -0.62, -0.43, -0.36 (mean -0.39)
* GFDLNEYGIS / VIYADGMRTVYADSVK / GNQAGTFDI [En_Gen]: -0.25, -0.84, -0.39, -0.18, 0.24, 0.32 (mean -0.19)
* GVDIDEYGIS / VIYADGIRTFYQDKVK / GNVGGMFDT [En_Gibbs]: ND, 0.77, ND, 1.41, 0.77, 1.58 (mean 1.13)
* GFDLNEYGIS / VIYADGVRTAYSDSVK / GNQAGTFDL [En_Gen]: -0.86, -1.16, -1.05, -0.71, -1.13, -1.36 (mean -1.04)
* GTSLNSYGSS / VIYSDGRRTFYADSVK / GFAATSFDS [Ctrl]: ND, ND, ND, ND, ND, 2.91
* GFDLNEYGIS / VIYADGRRTAYIDSVK / GTNAGTFDI [En_HC]: 0.20, 0.29, 0.15, -0.01, 0.00, 0.10 (mean 0.12)
* GMSLDEYGIS / VIYADGRRQAYSDEVK / GEHGWFATI [En_Gibbs]: ND, ND, ND, ND, ND, ND
* GFDLNEYGIS / VIYADGRRTFYADSVK / GEVAGTFVN [En_HC]: 0.17, -0.55, -0.32, -0.16, -0.62, -0.24 (mean -0.29)
* GFDLNEYGIS / VIYADGVRTAYADSVK / GEAAGTFDV [En_Gen]: 0.07, -0.15, -0.28, -0.10, -0.55, -0.46 (mean -0.25)
* KDDLEAYGIS / VIYADGQRAAYVDKVK / GQTGGMFDQ [En_Gibbs]: ND, ND, ND, ND, ND, 2.19
* GFSLNEYGIS / VIYADGMRTYYTESVK / GNIFDQLFV [En_Gibbs]: ND, ND, ND, ND, ND, ND
* GFDLNEYGIS / VIYADGMRSAYADSVK / GNVAGTFDI [En_Gen]: -0.82, -0.93, -0.23, -0.70, -0.97, -0.85 (mean -0.75)
* EFDLNNYGIS / VIYADGLRTAYETSFK / GDNAGTFDS [En_Gibbs]: ND, ND, ND, ND, ND, ND
* GFDLNEYGIS / VIYADGVRTAYSDSVK / GNVAGTFDV [En_Gen]: 0.65, 0.49, -0.08, -0.21, -0.23, -0.09 (mean 0.09)
* GFDLQEYGIS / VIYADGVREAYTESVK / GNSGGRDML [En_Gibbs]: 2.61, ND, 2.62, ND, ND, ND (mean 2.61)
* GFDLNEYGIS / VIYADGRRTYYADSVK / GTNGGTFDV [En_HC]: 0.55, 0.26, 0.20, 0.43, 0.67, 0.91 (mean 0.50)